Data: PMC7253723, “Chain-End Modifications and Sequence Arrangements of Antimicrobial Peptoids for Mediating Activity and Nano-Assembly” (Frontiers in Chemistry, 2020)

Key:
[1] = Analytical RP-HPLC elution (ACN %) as measure of hydrophobicity; assay type: physicochemical; details: chromatographic, C18 column (250 × 4.6 mm Nucleosil), 30 min gradient 5–95% ACN in water with 0.1% TFA, 1 mL/min, used as measure of hydrophobicity
Method: Peptoids were synthesized on resin manually or with an automated synthesizer (Prelude X, Gyros Protein Technologies) using a solid phase “submonomer” approach (Zuckermann et al., [1992]; Lau, [2014]; Lau et al., [2017]). Briefly, the Fmoc protected rink amide resin was deprotected with 20% piperidine for 20 min, applied twice. Each residue was added by treatment to a mixture of bromoacetic acid (20 times excess) and diisopropyl-carbodiimide (18.5 times excess) for 15 min, followed by a halo-substitution reaction with appropriate primary amine submonomers. For the attachment of a di ethylene glycol linker, Fmoc-amino-3,6 dioxaoctanoic acid (1.8 mmol), and equivalent moles of HBTU ((2-(1H-benzotriazol-1-yl)-1,1,3,3-tetramethyluronium hexafluorophosphate) were reacted with the terminal amino group in the presence of N,N-diisopropylethylamine (DIPEA, 2.7 mmol). This reaction was carried out for 2 h at 37°C and repeated a second time for 4 h, to ensure coupling. Like resin Fmoc deprotection, EG2 N-terminal Fmoc deprotection was achieved using 20% piperidine for 20 min, applied twice. Different chain lengths of saturated fatty acids, i.e., pelargonic acid (C8), lauric acid (C11), and palmitic acid (C15) were subsequently coupled using the HBTU amide coupling as reported previously (Lau et al., [2017]). […]

[2] = tested on: Escherichia coli (ATCC 25922); assay type: cell-based
Method: (§1) Technical triplicates (n = 3) or more of samples at each concentration were analyzed.

[3] = tested on: Staphylococcus aureus (NCTC 4135); assay type: cell-based
Method: as §1

[4] = Critical aggregation concentration (CAC) Nile red fluorescence assay; assay type: physicochemical; details: Nile red fluorescence (~10 nM NR in water), lipopeptoids 2.5 × 10^-2 to 1 wt.%, excitation 552 nm, peak around 610 nm, room temperature; inflection in emission intensity
Method: Nile red (NR) fluorescence was used to measure critical aggregation concentration (CAC) for the synthesized lipopeptoids. Lipopeptoids were dissolved at 2.5 × 10^−2 to 1 wt.% in a dilute solution of Nile red (0.25 μg/100 mL, i.e. ~10 nM concentration) prepared in water. NR was excited at 552 nm and emission was recorded at room temperature in the range 550–750 nm using a 10.0 × 5.0 mm^2 quartz cell (Jasco spectrofluorimeter FP-6500). The intensity of the peak centered around 610 nm is shown in the data presented in Section results and discussion.
We first examined with a CAC assay whether coupling a hydrophobic tail to AMPMs and inserting the kk and EG2 components is a viable design for generating self-assembling lipopeptoids. The CAC measures the concentration above which hydrophobic pockets (e.g., lipophilic cores of micelles) are formed, and lower CACs indicate higher propensities of self-assembly. In our experiments, the CAC is indicated by an inflection in the increase in emission intensity of a lipophilic fluorophore tracer (Nile Red) that emits more strongly when partitioned into hydrophobic lower dielectric environments (see Figure S6 for an example analysis).

[5] = tested on: Pseudomonas aeruginosa (PA01); assay type: cell-based
Method: as §1

SMILES	elution ACN % (RP-HPLC retention) [1] [ACN %]	Antimicrobial activity (MIC) E. coli [2] [µM]	Antimicrobial activity (MIC) S. aureus [3] [µM]	CAC [4] [µM]	Hydrodynamic radius RH (DLS) [nm]	Antimicrobial activity (MIC) P. aeruginosa [5] [µM]
CCCCCCCCC(=O)NCCOCCOCC(=O)N(CCCCN)CC(=O)N(CC(=O)N(CC(=O)N(CCCCN)CC(=O)N(CC(=O)N(CC(=O)N(CCCCN)CC(=O)N(CC(=O)N(CC(=O)N(CCCCN)CC(=O)N(CC(=O)N(CC(=O)N(CCCCN)CC(=O)N(CCCCN)CC(N)=O)[C@@H](C)c1ccccc1)[C@@H](C)c1ccccc1)[C@@H](C)c1ccccc1)[C@@H](C)c1ccccc1)[C@@H](C)c1ccccc1)[C@@H](C)c1ccccc1)[C@@H](C)c1ccccc1)[C@@H](C)c1ccccc1 [C8-EG2-(kss)4-kk]	48	2 ± 0.3	2 ± 0.1	290 ± 14	30	–
CCCCCCCCCCCC(=O)NCCOCCOCC(=O)N(CCCCN)CC(=O)N(CC(=O)N(CC(=O)N(CCCCN)CC(=O)N(CC(=O)N(CC(=O)N(CCCCN)CC(=O)N(CC(=O)N(CC(=O)N(CCCCN)CC(=O)N(CC(=O)N(CC(=O)N(CCCCN)CC(=O)N(CCCCN)CC(N)=O)[C@@H](C)c1ccccc1)[C@@H](C)c1ccccc1)[C@@H](C)c1ccccc1)[C@@H](C)c1ccccc1)[C@@H](C)c1ccccc1)[C@@H](C)c1ccccc1)[C@@H](C)c1ccccc1)[C@@H](C)c1ccccc1 [C11-EG2-(kss)4-kk]	55	7 ± 0.1	2 ± 0.2	270 ± 31	–	14 ± 1
